Values of other authors in US10610591B2, “Light responsive quantum dot drug delivery system” (Nanoco Technologies Ltd., priority 2017, dated 2020).

Conditions: octanol/water; cited from earlier work

In the case of CCC(=O)N(c1ccccc1)C1CCN(CCc2ccccc2)CC1, the log P (log Po/w, log Poct/wat, log Pexp) is listed as 4.05.

This is a selection: effects in other tests are not listed, and their absence says nothing.
